Assay outcomes as filed in PubChem BioAssay.
Hits are enriched below; roughly 1.8% of the tested compounds scored in any of these assays.
AF4-AF9 inh: blocks AF4 peptide binding to human AF9 | AlphaScreen, biotin-AF4 peptide binding to FLAG-AF9 | inhibition, % at 10 µM | 350,000 tested, 0.47% active | AID 651704;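 active = every replicate reaching a set inhibition limit, whatever the replicate mean, cut at about 25% in these data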;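 note: 0% = plate neutral control median and 100% = total signal loss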
SIRT5 block: sirtuin-5 (human) deacylase inhibition; Q9NXA8; inhibition, % at 15 µM; Purified SirT5, succinyl-peptide AMC, trypsin-coupled fluorescence; 330,000 tested, 1.1% active; in the data active = inhibition above about 15%
RAD52 inh: inhibitors of human RAD52 DNA annealing; AID 651710; 360,000 tested, 0.46% active; inhibition, % at 18.7 µM; recombinant RAD52 DNA annealing, FRET fluorescence; P43351;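 active = every replicate showing at least 50% inhibition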
RAD54 inh: RAD54 (human) branch migration inhibition. 360,000 tested, 0.14% active. AID 602329. inhibition, % at 10.4 µM. Q92698. RAD54 Holliday junction branch migration, FAM/BHQ fluorescence;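 active = mean normalized replicate activity at least 40 and at least half of replicates scoring 40 or more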;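 note: 0% = median of neutral control wells and 100% = median of positive control wells; inhibitors cause a drop in the FAM fluorescence signal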
E-sel inducer: E-selectin induction on HUVECs | HUVEC E-selectin immunofluorescence imaging; normalized: neutral wells 0, TNF-alpha wells 100 | 260,000 tested, 0.37% active | activation, % at 7.58 µM | P16581;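 active = mean E-selectin-positive cell signal at least 10% of the positive control, reached in at least 60% of replicates, without over 20% cell loss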
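material = human umbilical vein endothelial cells (HUVEC), E-selectin induction | quantity = 3,000 cells/well | medium = EGM-2 growth medium on 0.1% gelatin-coated wells | technique = immunofluorescence imaging | read-out basis = % PE-positive cells | control set = TNF-alpha positive control, DMSO neutral control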
UUG fidelity: alters start codon recognition fidelity in yeast | S. cerevisiae UUG-firefly luciferase reporter, luminescence/redox ratio | activity score, % at 18.7 µM | hit rate 0.13% among 350,000 | AID 602363;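 active means replicate mean at a twofold rise or more, about +100% in these data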;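 further: firefly luciferase made from a UUG start codon reports start codon fidelity; reporter light over untreated wells divided by growth signal over untreated wells; some hits fall short of that in this replicate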
* = called active by the depositor; . = not tested or not shown.

1	CCOC(=O)Cc1csc(NC(=O)c2cc(C)cc(C)c2)n1
2	C/C=C/c1ccc([C@H]2[C@H](CO)N(C(=O)c3cnccn3)C23CN(C(=O)C2CC2)C3)cc1
3	Cc1noc(C)c1S(=O)(=O)Nc1ccc2c(c1)CC(=O)N([C@@H](C)CO)C[C@@H](C)[C@@H](CN(C)C(=O)Nc1ccc(F)cc1)O2
4	CNC[C@H]1Oc2ccc(NC(=O)NC(C)C)cc2C(=O)N([C@@H](C)CO)C[C@H]1C
5	Cc1ccc(SCCC(=O)NC2CC2)cc1
6	COc1ccc2c3c([nH]c2c1)[C@H](CO)N(C(C)=O)CC31CCN(Cc2ccccc2Cl)CC1
7	COc1ccc2c3c([nH]c2c1)[C@H](CO)N(C(C)=O)CC31CCN(S(=O)(=O)c2ccccc2)CC1
8	COc1ccc2c3c([nH]c2c1)[C@H](CO)N(C(C)=O)CC31CN(Cc2cc(-c3ccccc3)on2)C1

Compound,1,2,3,4,5,6,7,8
AF4-AF9 inh,1.8,3.0,-1.6,-3.7,-4.1,2.3,1.8,25.8*
SIRT5 block,15.9*,-14.1,-2.1,-1.3,16.0*,.,-4.7,2.1
RAD52 inh,-25.3,-11.3,7.6,1.9,-4.3,8.5,-2.8,-15.2
RAD54 inh,6.1,.,-0.8,1.4,.,.,.,.
E-sel inducer,.,0.0,-34.6,-2.6,-0.1,0.3,0.1,-0.2
UUG fidelity,-11.4,.,1.3,-8.9,.,.,.,.

9	COc1ccc2c3c([nH]c2c1)[C@@H](CO)N(C(C)=O)CC31CCN(Cc2cc(-c3ccccc3)on2)CC1
10	COc1ccc2c3c([nH]c2c1)[C@@H](CO)N(C(=O)Cc1ccccn1)CC31CN(Cc2ccccn2)C1
11	COc1ccc2c3c([nH]c2c1)[C@H](CO)N(C(C)=O)CC31CCN(Cc2cc(-c3ccccc3)on2)CC1
12	COc1ccc2c3c([nH]c2c1)[C@H](CO)N(C(=O)Nc1ccc(F)cc1)CC31CCN(Cc2cc(-c3ccccc3)on2)CC1
13	COc1ccc2c3c([nH]c2c1)[C@H](CO)N(C(C)=O)CC31CN(Cc2ccccc2Cl)C1
14	C[C@H]1CN([C@@H](C)CO)C(=O)c2cc(/C=C/c3ccccc3)cnc2O[C@H]1CN(C)C(=O)c1ccccc1
15	O=C(c1ccc(F)cc1)N1CCCCN2[C@H](CO)[C@H](c3ccc(C#CC4(O)CCCC4)cc3)[C@@H]2C1
16	C[C@H](O)C#Cc1cnc2c(c1)C(=O)N([C@@H](C)CO)C[C@@H](C)[C@H](CN(C)C(=O)Cc1ccccn1)O2

Compound,9,10,11,12,13,14,15,16
AF4-AF9 inh,36.0*,5.1,30.5*,-0.7,26.3*,1.3,-3.4,-2.6
SIRT5 block,2.4,.,-0.8,11.1,3.0,-13.5,-1.7,-3.5
RAD52 inh,12.3,.,14.0,-0.2,9.0,12.2,0.0,-21.4
RAD54 inh,.,.,.,.,.,0.0,4.0,0.8
E-sel inducer,-0.3,-0.2,-0.1,0.1,-0.3,0.1,0.0,0.8
UUG fidelity,.,.,.,.,.,-0.2,-3.1,-14.5

17	CN1C(=O)c2cc(NC(=O)Nc3cccc(Cl)c3)ccc2OC[C@H]2O[C@@H](CC(=O)O)CC[C@@H]21
18	C[C@H](CO)N1C[C@H](C)[C@H](CN(C)S(=O)(=O)c2ccc(Cl)cc2)OCc2ccccc2-c2ccccc2C1=O
19	CN1CCC(=O)N([C@H](CN=[N+]=[N-])Cc2ccccc2)CC1
20	CC(C)CN1CCC(=O)N([C@H](CN=[N+]=[N-])Cc2ccccc2)CC1
21	CCCN1CCC(=O)N([C@H](CN=[N+]=[N-])Cc2ccccc2)CC1
22	CO[C@@H]1CN(C)C(=O)c2cc(NS(C)(=O)=O)ccc2OC[C@@H](C)N(C(=O)C2CC2)C[C@H]1C
23	CCOC(=O)c1c(C)n(OCc2ccccc2)c2ccc3nonc3c12
24	CO[C@@H]1CN(C)C(=O)c2cc(NC(=O)c3ccccc3)ccc2OC[C@H](C)N(CC2CC2)C[C@H]1C

Compound,17,18,19,20,21,22,23,24
AF4-AF9 inh,-5.4,4.4,42.9*,-0.9,42.8*,-1.7,33.2*,.
SIRT5 block,0.2,3.8,.,.,.,3.1,-5.2,.
RAD52 inh,3.1,28.3,-3.3,-18.1,-28.5,-3.4,-8.6,.
RAD54 inh,-12.7,6.9,-14.7,-23.6,-0.9,13.3,-3.6,1.2
E-sel inducer,0.3,-0.2,0.1,0.0,-0.1,0.0,.,-0.3
UUG fidelity,11.4,.,-9.2,-18.5,-14.9,11.5,-15.0,.

25	C/C(=N\Nc1ncc(Cl)cc1Cl)c1ccc(OC(F)F)cc1
26	C/C(=N\Nc1ncc(Cl)cc1Cl)c1ccc2c(c1)OCO2
27	O=C(O)[C@H]1[C@H](CO)[C@H]2Cn3c(ccc(-c4ccccc4)c3=O)[C@H]2N1CCc1ccccc1
28	O=C(Nc1ccc2c(c1)[C@H]1C[C@H](CC(=O)N3CCOCC3)O[C@H](CO)[C@H]1O2)NC1CCCC1
29	COc1cc([C@H]2Oc3c(OC)cc(CCCO[C@@H]4O[C@H](CO)[C@@H](O)[C@H](O)[C@H]4O)cc3[C@@H]2CO)ccc1O
30	O=C(NCc1ccccn1)[C@@H]1[C@@H](CO)[C@@H]2Cn3c(cccc3=O)[C@H]1N2CC1CCCCC1
31	O=C(NCc1ccccn1)[C@@H]1[C@@H](CO)[C@@H]2Cn3c(cccc3=O)[C@@H]2N1CCc1ccccc1
32	O=C(NCc1ccccc1)[C@H]1[C@H](CO)[C@H]2Cn3c(cccc3=O)[C@@H]1N2CC1CCCC1

Compound,25,26,27,28,29,30,31,32
AF4-AF9 inh,.,1.7,-1.1,-1.0,-1.8,0.5,-1.3,-1.8
SIRT5 block,.,25.0*,.,-2.3,24.7*,0.4,15.9*,0.7
RAD52 inh,.,-10.2,.,-3.7,2.1,57.3*,-30.4,14.2
RAD54 inh,-0.4,.,0.0,0.9,10.6,11.4,13.1,-4.4
E-sel inducer,.,.,0.1,0.2,.,0.1,-0.1,0.2
UUG fidelity,-10.5,.,7.3,0.0,-3.8,.,.,.

33	CC=Cc1ccc2n(c1=O)C[C@H]1[C@H](CO)[C@@H](C(=O)NCc3ccccn3)[C@@H]2N1CCC (mixture of isomers)
34	O=C(NCc1ccc(F)cc1)[C@H]1[C@H](CO)[C@H]2Cn3c(cccc3=O)[C@H]2N1Cc1ccccn1
35	O=C(NC1CCCCC1)[C@@H]1[C@@H](CO)[C@@H]2Cn3c(cccc3=O)[C@H]1N2CC1CCCCC1
36	O=C(CCN1CCCCC1)NCC[C@H]1CC[C@H](NC(=O)Nc2ccc(Cl)cc2)[C@@H](CO)O1
37	O=C(N[C@@H]1CC[C@H](CC(=O)N2CCOCC2)O[C@@H]1CO)c1cccc(F)c1
38	COc1ccccc1S(=O)(=O)N[C@H]1CC[C@@H](CC(=O)NCc2cccc(F)c2)O[C@@H]1CO
39	CCCNC(=O)N1[C@@H]2Cn3c(cccc3=O)[C@H]1[C@@H](C(=O)N1CCC(Cc3ccccc3)CC1)[C@@H]2CO
40	CC(=O)N1[C@@H]2Cn3c(cccc3=O)[C@H]1[C@@H](C(=O)NCC1CCCCC1)[C@@H]2CO
41	CN1[C@@H]2Cn3c(cccc3=O)[C@H]1[C@@H](C(=O)NCC1CCCCC1)[C@@H]2CO

Compound,33,34,35,36,37,38,39,40,41
AF4-AF9 inh,-0.2,2.5,-2.4,2.9,-1.9,1.9,-2.7,1.0,-1.6
SIRT5 block,-2.7,3.0,19.0*,0.1,-0.1,-1.5,20.9*,1.9,-0.5
RAD52 inh,96.3*,-18.5,-1.3,18.4,8.6,3.5,-12.9,58.8*,-4.1
RAD54 inh,8.1,3.3,.,-9.4,-1.9,13.7,1.6,8.4,-10.6
E-sel inducer,0.2,0.2,-0.4,-0.1,-0.2,-0.2,0.7,-0.3,0.0
UUG fidelity,.,.,.,-10.9,-10.3,.,.,.,-5.1

RAD52 inh, what is marked active above.
nr	smiles	AF4-AF9 inh	SIRT5 block	RAD52 inh	UUG fidelity
30	O=C(NCc1ccccn1)[C@@H]1[C@@H](CO)[C@@H]2Cn3c(cccc3=O)[C@H]1N2CC1CCCCC1	0.5	0.4	57.3*	.
33	CC=Cc1ccc2n(c1=O)C[C@H]1[C@H](CO)[C@@H](C(=O)NCc3ccccn3)[C@@H]2N1CCC (mixture of isomers)	-0.2	-2.7	96.3*	.
40	CC(=O)N1[C@@H]2Cn3c(cccc3=O)[C@H]1[C@@H](C(=O)NCC1CCCCC1)[C@@H]2CO	1.0	1.9	58.8*	.
